AlphaSeq binding of Ab-14 light chain variants to a spike HR2 peptide

All variants were tested on one target, the spike HR2 peptide PDVDLGDISGINAS (SARS-CoV-2).

The variants keep the heavy chain, the linker and the frameworks of Ab-14 (scFv order VH, a 15-residue (Gly4Ser)3 linker, VL).
VH: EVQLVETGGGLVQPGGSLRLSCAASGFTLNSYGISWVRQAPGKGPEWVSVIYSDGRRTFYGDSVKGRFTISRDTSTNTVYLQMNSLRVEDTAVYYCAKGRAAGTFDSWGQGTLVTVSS
VL: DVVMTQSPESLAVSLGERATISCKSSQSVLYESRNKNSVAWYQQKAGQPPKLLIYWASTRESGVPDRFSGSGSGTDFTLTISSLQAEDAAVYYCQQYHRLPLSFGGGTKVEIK

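The starting antibody came from a phage panning campaign against this peptide. This is the validation round: designs drawn from the data on random variants, tested in the same kind of assay. Their group label is 14L_GP_Gen (GP: Gaussian process model; Gen: genetic algorithm; a sequence that several methods proposed may carry one label only). The assay is AlphaSeq: two haploid yeast populations carry antibody and antigen on their surface. After mating in shaken culture at 30 °C for 16 h, diploids were selected and their barcode pairs sequenced. Each replicate has its own calibration line, from reference interactions of the BCL2 family. The assay was run in six technical replicates.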

Changes read parent residue, position, new residue, counted from the first residue of the VL shown.
Values are log10 of the apparent Kd in nM; lower means stronger binding.

With S25L/S38N/W56H/E61C the result was 0.64, 0.50, 0.15, 0.40, 0.61, 0.84 (controls 0 of 18).
With S25L/V29H/W56Q/E61C the result was 0.14, -0.13, 0.21, -0.19, -0.20, 0.15 (controls 0 of 18).
With S25L/S26Y/V29F/W56E the result was 0.85, 0.70, 0.64, 0.96, 1.17, 0.75 (controls 1 of 18).
With S25L/V29F/S33M/W56N the result was 0.44, 0.26, -0.06, 0.16, 0.07, 0.29 (controls 0 of 18).
With S25F/S26P/W56E/T59Q the result was -0.10, -0.21, -0.27, -0.23, -0.27, -0.03 (controls 1 of 18).
With S25V/W56N/S103I the result was 0.29, 0.19, 0.23, 0.05, 0.24, 0.25 (controls 0 of 18).
With S25L/Q27F/V29M/W56D the result was 0.01, 0.07, -0.46, -0.19, -0.16, -0.27 (controls 0 of 18).
With S25L/L30P/W56E/E61C the result was -0.08, -0.20, 0.10, 0.33, 0.18, 0.77 (controls 0 of 18).
With S25L/V29E/W56E/T59E the result was 0.13, 0.47, 0.04, 0.45, 0.82, 0.53 (controls 0 of 18).
With S25L/V29E/W56G/Q96D the result was 0.21, 0.19, 0.00, -0.08, -0.09, 0.14 (controls 0 of 18).
With S25L/S33D/W56N/S62Q the result was 0.04, -0.22, -0.12, -0.14, -0.04, 0.09 (controls 0 of 18).
With S25F/V29D/W56D the result was -0.32, -0.04, -0.19, -0.37, -0.27, -0.14 (controls 0 of 18).
With S25V/S38N/W56G the result was -0.35, -0.23, -0.46, -0.49, -0.69, -0.53 (controls 0 of 18).
With S25L/S26Q/V29W/W56H/T59Q the result was 0.38, 0.28, 0.17, 0.15, 0.07, 0.28 (controls 0 of 18).
With W56E/E61L the result was 0.41, 0.41, 0.54, 0.12, 0.26, 0.41 (controls 1 of 18).
With S25L/K36F/W56N the result was 0.09, -0.14, -0.20, -0.30, -0.13, 0.06 (controls 1 of 18).
With S25L/V29W/W56N/T59Q/S62M the result was 0.19, 0.07, -0.15, -0.14, 0.13, 0.00 (controls 0 of 18).
With S25V/V29Y/W56N/Q96D the result was 0.27, -0.12, 0.03, -0.05, 0.00, 0.22 (controls 1 of 18).
With S25L/Q27M/V29M/W56H the result was 0.17, -0.08, -0.16, -0.24, -0.15, -0.07 (controls 5 of 18).
With L30P/W56E/T59Q the result was -0.07, -0.02, 0.36, -0.17, -0.31, 0.20 (controls 1 of 18).
With S25L/Q27M/V29H/W56N the result was 0.10, -0.14, -0.14, -0.19, -0.20, 0.02 (controls 2 of 18).
With S25L/V29E/W56N/E61M/S62Q the result was 0.57, 0.26, -0.06, -0.02, 0.05, 0.21 (controls 0 of 18).
With S25L/W56N/E61M/S62M the result was 0.24, 0.14, 0.17, 0.26, 0.51, 0.36 (controls 1 of 18).
With S25V/V29H/S33Q/W56N the result was 0.14, -0.15, -0.09, -0.22, -0.25, 0.25 (controls 1 of 18).
With S25L/W56A/E61M the result was 0.21, 0.38, 0.09, -0.08, -0.13, 0.28 (controls 0 of 18).
With S25V/V29G/S33Q/W56E the result was -0.21, -0.29, -0.40, -0.40, -0.42, -0.17 (controls 3 of 18).
With S25L/S26E/Q27M/V29Q/W56N the result was 0.25, 0.13, 0.14, 0.05, 0.04, -0.02 (controls 1 of 18).
With S25I/W56N/E61L the result was -0.01, -0.28, -0.20, -0.29, -0.31, -0.16 (controls 1 of 18).
With S25L/S26P/V29N/W56Q the result was 0.02, -0.04, 0.00, -0.14, -0.20, 0.02 (controls 3 of 18).
With S25V/V29Q/W56N/T59K the result was 1.39, 1.83, 2.26, 1.74, 1.80, 1.70 (controls 1 of 18).
With S25L/S26Q/V29S/W56N/E61C the result was -0.28, -0.33, -0.34, -0.38, -0.42, 0.02 (controls 0 of 18).
With S25L/S26E/V29K/W56N/T59Q the result was -0.15, -0.20, -0.29, -0.20, -0.35, -0.22 (controls 0 of 18).
With S25L/V29Y/N37W/W56N the result was -0.13, -0.23, -0.29, -0.36, -0.32, -0.11 (controls 1 of 18).
With S25L/V29E/N37W/W56N the result was 0.21, 0.20, 0.18, 0.11, 0.09, 0.40 (controls 3 of 18).
With S25L/S26M/V29T/W56N/T59Q the result was 0.93, 0.54, 0.86, 0.50, 0.42, 1.00 (controls 0 of 18).
With S25L/S26E/V29D/W56N/S62Q the result was -0.10, -0.36, -0.51, -0.42, -0.42, -0.30 (controls 0 of 18).
With S25L/V29M/W56N/T59Q/Q96D the result was -0.09, -0.16, -0.31, -0.40, -0.12, -0.01 (controls 1 of 18).
With S25L/V29W/N37M/W56N/T59Q the result was 0.27, -0.52, -0.14, -0.66, -0.38, -0.15 (controls 1 of 18).
With S25V/W56N/E61F the result was -0.06, -0.09, -0.14, -0.22, -0.27, -0.09 (controls 2 of 18).
With S25L/S26D/V29Q/N35M/W56N the result was 0.44, 0.35, 0.13, 0.12, 0.20, 0.41 (controls 1 of 18).
With S25L/S26M/W56N/S62V the result was -0.01, -0.07, -0.25, -0.27, -0.36, 0.04 (controls 1 of 18).
With S25V/V29H/W56N/Q96D the result was -0.27, -0.35, -0.43, -0.50, -0.37, -0.23 (controls 1 of 18).
With S25L/V29D/W56D/T59Q the result was 0.40, 0.56, 0.37, 0.37, 0.11, 0.65 (controls 0 of 18).
With S25L/V29M/N35A/W56N the result was -0.29, -0.70, -0.75, -0.57, -0.72, -0.58 (controls 1 of 18).

For reference, 5 entries of the list once more:

{"changes": "W56E/E61L", "replicates, log10 nM": "0.41, 0.41, 0.54, 0.12, 0.26, 0.41", "signal with controls": "1/18"}
{"changes": "S25V/V29H/S33Q/W56N", "replicates, log10 nM": "0.14, -0.15, -0.09, -0.22, -0.25, 0.25", "signal with controls": "1/18"}
{"changes": "S25V/V29H/W56N/Q96D", "replicates, log10 nM": "-0.27, -0.35, -0.43, -0.50, -0.37, -0.23", "signal with controls": "1/18"}
{"changes": "S25V/W56N/E61F", "replicates, log10 nM": "-0.06, -0.09, -0.14, -0.22, -0.27, -0.09", "signal with controls": "2/18"}
{"changes": "S25V/V29Q/W56N/T59K", "replicates, log10 nM": "1.39, 1.83, 2.26, 1.74, 1.80, 1.70", "signal with controls": "1/18"}

In the paper, a design with two or fewer of six values counts as a poor binder.
The range of this assay differs from that of the first round, and the authors advise against merging the two.
Nonspecific signal, from three strains lacking the peptide, appeared in 4% of pairings of all light chain designs, centred on 2.64 (5% of these signals below 1.59); values are not corrected for it. Also given: how often the same scFv was detected with the empty control strains.
The parent sequence was in this pool as ten entries: three were never detected, three once, and four in most replicates, with averages from 0.34 to 2.37.

Values reported by Li et al. 2023, doi:10.1038/s41467-023-39022-2 (FLAb copy).